In patent publication EP2913057B1, “Cancer peptide therapeutics” (Indiana University Research and Technology Corporation, priority 2008, dated 2010):

Tested on: U937 cells
Conditions: combined with 25mM of R9-caPep

With `COc1cccc2c1C(=O)c1c(O)c3c(c(O)c1C2=O)C[C@@](O)(C(=O)CO)C[C@@H]3O[C@H]1C[C@H](N)[C@H](O)[C@H](C)O1` [doxorubicin] the “doxorubicin needed to achieve the same level of cytotoxicity (30% cell death)” value was 25 nM.
